Test results taken from patent publication US5464861A, “2-thioindoles (selenoindoles) and related disulfides (selenides) which inhibit protein tyrosine kinases and which have antitumor properties” (Warner-Lambert, priority 1993, dated 1995).

Biological target: T1, epidermal growth factor receptor tyrosine kinase (Homo sapiens, UniProt P00533)
T1 construct: A native 170,000 epidermal growth factor receptor-kinase complex from shed plasma membrane vesicles; endogenous in cells
Assay: EGF receptor tyrosine kinase assay (P^32 incorporation in GAT)
Assay type: biochemical
Settings: read-out: % Inhibition at 100 μM (EGFR TK)
Description: At the time of assay, membranes were solubilized in 4% Triton X-100 and glycerol. The reaction is carried out in wells of a 96-well microtiter plate in a total volume of […]. Buffer containing 20 mMHepes (pH 7.4), 15 mMMgCl2, mM MnCl2, and 0.02% BSA followed by […] of membrane protein and 150 ng of epidermal growth factor. The plates are incubated for 10 minutes at room temperature to activate the receptor kinase. […] ATP plus or minus compound are added and incubated 10 minutes at room temperature.

Row | SMILES | inhibition at 100 µM [%]
1 | COC(=O)c1ccc(C(=O)C2C(=S)N(C)c3ccccc32)cc1 (centres unmarked) [Compound 26, 3-(4'-carbomethoxybenzoyl) -1-methyl-2-indolinethione] | 23
2 | CN1C(=S)C(C(=O)c2ccccc2)c2ccccc21 (centres unmarked) [Compound 24, 3-benzoyl-1-methyl-2-indolinethione] | 19
